This is a sample that favours compounds with a hit; in the whole collection about 2.8% have one here.
MITF act = increases MITF-driven TRPM1 promoter luciferase signal; activation, % at 12.5 µM; SK-MEL-5 TRPM1-promoter luciferase, 24 h; % of positive control, neutral wells = 0; actives 0.75% (n = 300,000);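 active = mean activation of at least 80% with every replicate also reaching 80%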;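 also: 0% = neutral control wells and 100% = parthenolide positive control wells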
Wnt bcat act = activators of Wnt/beta-catenin signaling; Wnt/beta-catenin reporter cell assay, activator, plate reader; activation, % at 9.35 µM; actives 1.2% (n = 300,000); AID 743398; in the data active = activation above about 30%, passing the limit was not always enough;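 also: 0% = neutral control wells and 100% = positive control wells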
miR122 inh = blocks miR-122 activity in Huh7 sensor cells. Huh7 miR-122 Renilla luciferase sensor, 48 h; neutral wells = 0, positive control = 100. activation (reporter increase), % at 12.5 µM. actives 0.3% (n = 340,000). AID 602342;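 active = mean replicate activation score at least 90 and every replicate individually at or above 90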;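 also: higher luciferase means less miR-122 activity so hits act as miR-122 inhibitors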
UUG fidelity = alters start codon recognition fidelity in yeast; AID 602363; activity score, % at 18.7 µM; 350,000 tested, 0.13% active; S. cerevisiae UUG-firefly luciferase reporter, luminescence/redox ratio;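 active means replicate mean at a twofold rise or more, about +100% in these data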;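 further: firefly luciferase made from a UUG start codon reports start codon fidelity; reporter light over untreated wells divided by growth signal over untreated wells; some hits fall short of that in this replicate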
esBAF inh = SWI/SNF esBAF complex inhibition; mouse ES cells, Bmi1-luciferase knock-in reporter, 24 h; 100% = twice the neutral-well signal; reporter increase, % at 12.5 µM; AID 602393; actives 2% (n = 350,000); in the data active = activation above about 40%;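 also: 0% = median of the plate's neutral control wells and 100% = double that signal; a rise in the Bmi1 reporter signal indicates esBAF inhibition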
PglD DTNB = PglD (C. jejuni) enzyme inhibition; purified PglD enzyme, DTNB colorimetric CoA detection; inhibition, % at 12.5 µM; actives 0.098% (n = 360,000); AID 602405; in the data active = inhibition above about 16%, passing the limit was not always enough
* marks the source's active call; other numbers are inactive results; · = no result given; [ ] = dose if it differs, or a comment.

entry | compound | Wnt bcat act | miR122 inh | MITF act | esBAF inh | UUG fidelity | PglD DTNB
1 | CC(C)(C)NC(=O)C(c1cc2ccccc2o1)n1c(-c2ccc(-c3ccccc3)cc2)nc2ccccc21 (stereo unspecified) | 51* | · | · | · | · | ·
2 | O=C(Nc1ccc(F)cc1)N[C@H]1CC[C@H](CC(=O)N2CCOCC2)O[C@@H]1CO | · | 13[16.7 µM] | · | -3 | -11 | 2
3 | Cc1cccc(Nc2nc(N)nc(CSc3nccn3C)n2)c1 | · | -2 | · | 53* | -29 | 2
4 | Cc1cc(C)n2nc(-c3ccc(Cl)cc3)cc2n1 | 34* | · | 24 | 20 | -17 | 9
5 | COc1ccc(-c2cc3nc(C)cc(C)n3n2)cc1 | -5 | 12 | 53 | 12 | -8 | 7
6 | Cc1cc(C)n2nc(-c3ccc(Br)cc3)cc2n1 | 45* | 4 | · | 35 | -25 | -3
7 | Cc1cc(C)n(-c2nc(-c3ccc(Cl)cc3)cs2)n1 | 0 | -4 | 36 | 51* | -15 | 2
8 | O=C(O)C[C@H]1c2cc(C(F)(F)F)ccc2S(=O)(=O)N1C1CCCC1 | 1 | 6 | 8 | 3 | 37 | 6
9 | CC(=O)C[C@H]1c2cc(C(F)(F)F)ccc2S(=O)(=O)N1C1CCCC1 | 2 | 105* | -9 | -8 | -13 | 2
10 | CCCn1c(C)cc(C(=O)Cn2nnc3ccccc3c2=O)c1C | 46* | 7 | 67 | · | · | ·
11 | C=CCNC(=O)c1ccc(-c2cccc([N+](=O)[O-])c2)o1 | 9 | · | 52 | 46* | 1 | -2
12 | O=C(Nc1nccs1)c1ccc(-c2cccc([N+](=O)[O-])c2)o1 | 60* | 6 | 59 | 67* | -14 | -8

miR122 inh, entries above that show a hit.
entry | compound | Wnt bcat act | miR122 inh | MITF act | esBAF inh | UUG fidelity | PglD DTNB
9 | CC(=O)C[C@H]1c2cc(C(F)(F)F)ccc2S(=O)(=O)N1C1CCCC1 | 2 | 105* | -9 | -8 | -13 | 2

Continuation:
entry | compound | Wnt bcat act | miR122 inh | MITF act | esBAF inh | UUG fidelity | PglD DTNB
13 | CC(Sc1ncnc2sc(-c3ccccc3)cc12)C(=O)N1CCNC1=O (stereo unspecified) | 8 | 3 | 38 | 4 | 1 | 1
14 | CC(C)N(C(=O)CSc1ncnc2sc(-c3ccccc3)cc12)C(C)C | · | · | 35 | 59* | 10 | -2
15 | O=c1c2ccccc2nc(/C=C/c2ccc3c(c2)OCO3)n1CCCO | · | · | 35 | · | · | ·
16 | C(=C/c1nccc2c1[nH]c1ccccc12)/c1ccc2c(c1)OCO2 | 9 | · | 21 | 76* | -10 | -1
17 | CN1C(=O)c2cc(NC(=O)c3ccc(F)c(F)c3)ccc2OC[C@@H]2O[C@@H](CC(=O)N3CCOCC3)CC[C@@H]21 | · | 27[16.7 µM] | · | 1 | · | 0
18 | O=C(NC1CCCCC1)C(=S)NCc1ccccc1 | 9 | 13 | 57 | 50* | -6 | 6
19 | O=C(NC(=S)NC1CCCC1)c1ccccc1 | 25 | · | 55 | 56* | -21 | 1
20 | COC(=O)CCCCCCCCC(O)CN(C)C (stereo unspecified) | 3 | · | 4 | · | -3 | -3
21 | COC(=O)CCCCCC(CCC(=O)OC)NC(C)=O (stereo unspecified) | · | 238* | · | -4 | -11 | -2
22 | Cc1ccc(C(=O)NN=CC(=O)c2ccccc2)c(C)c1 | 34* | · | 61 | -31 | -19 | 3
23 | COc1ccc(C(=O)NN/C(C)=C/C(=O)c2ccccc2)cc1 | 1 | 4 | · | 14 | -13 | 4
24 | Cc1ccc(C(=O)N/N=C2\CCc3ccccc32)c(C)c1 | 12 | 7 | 57 | · | -10 | -2
25 | COc1ccc(C(=O)N/N=C/C(=O)c2ccccc2)cc1 | 32* | -1 | 78 | 62* | -11 | -1
26 | COc1ccc(C(=O)N/N=C/c2ccc3cccc(OCc4ccccc4)c3n2)cc1 | 19 | 22 | 24 | 64* | -14 | -3
27 | O=C(NC1CCCC1)c1cc(-c2cccc(Cl)c2)on1 | 25 | 7 | 127* | 78* | -14 | 10
28 | O=C(NC1CCCC1)c1cc(-c2ccc(Cl)cc2)on1 | 30* | -6 | 132* | 44* | -6 | 6
29 | O=C(NC1CCC(O)CC1)c1ccc(-c2ccc(Cl)cc2)o1 (stereo unspecified) | 26 | 5 | 74 | 64* | · | ·
30 | O=C(NC1CCCCC1)c1cc(-c2ccc(Cl)cc2)on1 | 10 | · | 67 | 49* | -17 | -1
31 | O=C(NC1CCCC1)c1cc(-c2ccc(F)cc2)on1 | -2 | -7 | 62 | 30 | -19 | -1
32 | O=C(C[C@@H]1CC[C@@H](NS(=O)(=O)c2ccccc2)[C@H](CO)O1)NCc1ccncn1 | · | · | · | 5 | -14 | -2
33 | CNC(=O)C[C@H]1CC[C@@H]2[C@@H](COc3ccc(NC(=O)Nc4ccc(Cl)cc4)cc3C(=O)N2C)O1 | · | -58[16.7 µM] | · | -2 | 8 | 0
34 | Cc1ccc2[nH]c(=O)c(CN(CCc3ccccc3)C(c3nnnn3Cc3ccco3)C(C)C)cc2c1 (stereo unspecified) | 36* | 1 | -6 | · | -8 | 3
35 | O=C(O)c1cc(-c2ccc(-c3c(-c4ccc5c(c4)OCO5)noc3-c3ccsc3)cc2)nc2ccccc12 | 22 | -4 | 97* | 68* | -20 | 2
36 | CN(C)c1ccc(-c2c(-c3ccc4c(c3)OCO4)noc2-c2ccsc2)cn1 | · | -4 | 36 | 25 | -6 | -5

Compound profiles, from the list above:
Record of COc1ccc(C(=O)N/N=C/c2ccc3cccc(OCc4ccccc4)c3n2)cc1 = Wnt bcat act = 19; miR122 inh = 22; MITF act = 24; esBAF inh = 64*; UUG fidelity = -14; PglD DTNB = -3
Record of COc1ccc(C(=O)N/N=C/C(=O)c2ccccc2)cc1 = Wnt bcat act = 32*; miR122 inh = -1; MITF act = 78; esBAF inh = 62*; UUG fidelity = -11; PglD DTNB = -1

(continued)
entry | compound | Wnt bcat act | miR122 inh | MITF act | esBAF inh | UUG fidelity | PglD DTNB
37 | COc1ccc(Cn2c(C3CC3)nc3ccc(NC(=O)C4CC4)cc3c2=O)cc1 | 17 | -10 | 118* | 67* | -2 | -2
38 | CC(=O)Nc1ccc2nc(C3CC3)n(Cc3ccc(Cl)cc3)c(=O)c2c1 | -2 | 0 | 43 | 75* | · | ·
39 | CCC(=O)Nc1ccc2nc(C3CC3)n(Cc3ccc(C(C)(C)C)cc3)c(=O)c2c1 | 19 | -18 | 67 | 3 | -6 | 2
40 | C[C@@H]1CCCCO[C@@H](CN(C)C(=O)Cc2ccccc2)[C@@H](C)CN([C@@H](C)CO)C(=O)c2cc(NC(=O)Nc3ccc(F)cc3)ccc2O1 | · | 6[16.7 µM] | · | -1 | 5 | 0
41 | C[C@@H]1CN([C@H](C)CO)C(=O)c2cc(NS(=O)(=O)c3cccs3)ccc2O[C@@H](C)CCCCO[C@H]1CN(C)C(=O)Nc1ccc(F)cc1 | · | -1[16.7 µM] | · | -3 | -3 | -1
42 | COc1ccc(C(=O)O/N=C(\N)c2ccccc2)c(OC)c1 | -15 | · | -35 | · | · | ·
43 | COc1ccc(C(=O)Cc2ccc(OC)c(OC)c2)cc1 | 21 | -2 | 44 | 42* | -5 | 3
44 | COc1ccc(C(=O)O/N=C(\N)c2ccc(OC)c(OC)c2)cc1 | 26 | · | 102* | 26 | -7 | 1
45 | COc1ccc(/C(N)=N/OC(=O)c2ccc(OC)c([N+](=O)[O-])c2)cc1OC | 0 | -5 | 1 | 2 | -16 | 0
46 | COc1ccc(C(=O)Cc2cc3ccccc3oc2=O)cc1 | 10 | -4 | 121* | 56* | -7 | -5
47 | COc1ccc(C(=O)O/N=C(\N)c2ccc(OC)c(OC)c2)c(OC)c1 | · | 0 | 54 | 56* | 6 | -9
48 | CO[C@@H]1CN(C)C(=O)c2cc(NC(=O)C3CCOCC3)ccc2OC[C@@H](C)N(CC2CC2)C[C@H]1C | · | · | · | -4 | · | 0
49 | COCC#Cc1ccc2c(c1)O[C@H](CN(C)C(=O)C1CC1)[C@H](C)CN([C@H](C)CO)S2(=O)=O | · | 3[16.7 µM] | · | · | 0 | 0

Compound activity deposited in PubChem BioAssay by Broad Institute.
